From ChEMBL document CHEMBL1146689, “The design and synthesis of a novel quinolizidine template for potent opioid and opioid receptor-like (ORL1, NOP) receptor ligands” (2004)

By UniProt entry, the sequences of proteins in these tests, tags left out. Where a name states a change or a piece, a line headed by the entry shows the natural chain unless it says otherwise.
UniProt P41146: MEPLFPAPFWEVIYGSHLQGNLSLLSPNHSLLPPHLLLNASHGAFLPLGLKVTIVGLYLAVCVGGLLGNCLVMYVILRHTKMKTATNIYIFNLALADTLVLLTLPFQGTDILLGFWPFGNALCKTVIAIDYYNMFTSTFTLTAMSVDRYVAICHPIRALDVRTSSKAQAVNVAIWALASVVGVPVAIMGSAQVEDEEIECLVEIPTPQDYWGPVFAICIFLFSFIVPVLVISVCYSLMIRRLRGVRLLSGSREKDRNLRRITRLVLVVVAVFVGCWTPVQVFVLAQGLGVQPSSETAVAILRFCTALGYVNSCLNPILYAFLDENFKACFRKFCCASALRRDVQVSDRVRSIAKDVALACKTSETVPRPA
UniProt P41145: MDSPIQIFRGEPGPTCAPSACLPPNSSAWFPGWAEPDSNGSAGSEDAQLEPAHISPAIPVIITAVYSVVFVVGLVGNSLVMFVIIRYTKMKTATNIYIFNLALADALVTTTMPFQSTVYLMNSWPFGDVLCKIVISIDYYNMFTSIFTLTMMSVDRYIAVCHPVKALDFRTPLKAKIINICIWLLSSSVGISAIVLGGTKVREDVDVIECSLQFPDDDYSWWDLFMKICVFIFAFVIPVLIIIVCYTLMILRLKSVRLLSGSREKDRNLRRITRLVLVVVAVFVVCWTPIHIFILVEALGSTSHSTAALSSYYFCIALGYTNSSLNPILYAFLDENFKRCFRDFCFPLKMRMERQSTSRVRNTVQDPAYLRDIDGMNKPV

Key:
[1] = biological target: Nociceptin receptor (Homo sapiens) (UniProt P41146); assay: Stimulation of [35S]GTP-gamma-S, binding to human NOP receptor in cell membrane
[2] = biological target: Kappa-type opioid receptor (Homo sapiens) (UniProt P41145); assay: Stimulation of [35S]GTP-gamma-S, binding to human opioid receptor kappa 1 in cell membrane

Oc1nc2ccccc2n1[C@@H]1CCN2[C@H](CCC[C@H]2C2CCCCC2)C1
Stimulation [1]: 51%
Stimulation [2]: 43%
